Binding of CDR-mutated scFvs to a peptide of the spike HR2 region

Target peptide (SARS-CoV-2 spike, HR2 region): PDVDLGDISGINAS

The variants keep the heavy chain, the linker and the frameworks of Ab-14 (scFv order VH, a 15-residue (Gly4Ser)3 linker, VL).
VH: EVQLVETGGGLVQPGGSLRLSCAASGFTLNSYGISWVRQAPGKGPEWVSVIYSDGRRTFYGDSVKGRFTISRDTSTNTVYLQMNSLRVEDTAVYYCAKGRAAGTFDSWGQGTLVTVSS
VL: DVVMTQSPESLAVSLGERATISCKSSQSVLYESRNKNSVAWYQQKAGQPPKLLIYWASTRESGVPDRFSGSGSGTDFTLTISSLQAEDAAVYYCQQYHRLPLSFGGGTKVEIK

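In library AAYL50, one, two or three CDR residues were substituted; doubles and triples were drawn at random. The assay is AlphaSeq: two haploid yeast populations carry antibody and antigen on their surface. Mating (16 h, 30 °C) was followed by selection of diploids and sequencing of their barcodes. Read counts were normalised to the haploid input and turned into Kd by a linear fit to BCL2-family pairs of known affinity, for each replicate. Each pool was mated in three replicate cultures.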

The parent's light chain CDRs are KSSQSVLYESRNKNSVA, WASTRES, QQYHRLPLS; each variant's own CDRs replace them letter for letter. The read-out is the apparent dissociation constant on a log10 scale (nM): the lower, the stronger. A mean of the replicates is given; it leaves out those without a signal. Where no diploid with the target was found in that replicate, the entry reads "nd": below detection, most likely a poor binder, though not proof of it. As a blank, each scFv also met three strains without target: over library AAYL50, 18% of these pairings were detected, typically at 4.19 and seldom below 2.99. The control count says in how many pairings with the empty strains this scFv gave a signal, with their mean in brackets.

CDR-L1 | CDR-L2 | CDR-L3 | replicates, log10 nM | mean log10 Kd (nM) | empty controls
KSSQSVLYESANKNSVE | WASTRES | QQYHRLKLS | nd / nd / nd | nd | 1/9 (3.67)
KSSQSVLYESRNKNDVA | WDSTRES | QQYHRLPCS | nd / nd / nd | nd | 0/9
KSSQSVLYESRRKHSVA | WASTRES | QYYHRLPLS | 2.91 / 3.34 / 3.04 | 3.10 | 3/9 (3.59)
WSSQSVLYESRNKNSNA | WASTRES | QQYHRLRLS | 0.92 / 1.03 / 1.17 | 1.04 | 1/9 (2.26)
KSSQTVLYPSRNKNSVA | WASTRES | QQYHRVPLS | nd / 2.66 / nd | 2.66 | 0/9
KSSQSVLYESCNKNSVA | WASTRES | QQYLRLPLS | 2.27 / 2.41 / 2.15 | 2.28 | 0/9
KNSQSVLYESRNKNVVA | WASTRLS | QQYHRLPLS | nd / 3.50 / nd | 3.50 | 2/9 (4.09)
KSSQSPLYESRNKNSVD | WAFTRES | QQYHRLPLS | nd / nd / 3.78 | 3.78 | 1/9 (3.17)
KSSQSVLYESRNKNSVA | WASTRSS | QQTARLPLS | nd / nd / nd | nd | 2/9 (3.98)
ASSQSVLYESRNCNSVA | WASTRES | QQYHRLKLS | nd / nd / nd | nd | 1/9 (3.81)
KSSQSVLYESRDKNSVA | WASFRES | QQYHRLPES | nd / nd / nd | nd | 0/9
KSSQRVLYESRDKNSVA | WASTRES | QIYHRLPLS | 1.92 / 1.21 / 0.95 | 1.36 | 0/9
MSSQSVLYESRNKNSVA | WCSFRES | QQYHRLPLS | nd / 3.54 / nd | 3.54 | 3/9 (3.73)
DSSQSVLYESRNKNSVA | GASTRES | QQYHRIPLS | 0.14 / 0.47 / 0.30 | 0.30 | 0/9
KSSQSVLYESVNKNQVA | WASTRET | QQYHRLPLS | 0.81 / 0.97 / 0.88 | 0.89 | 5/9 (4.03)
KSSQSVLDESRNKNSVA | WASTRES | DQYHRLPLS | 0.25 / 0.52 / 0.38 | 0.38 | 7/9 (4.58)
KSSQSVWYDSRNKNSVA | WASTREK | QQYHRLPLS | 1.20 / 1.60 / 1.34 | 1.38 | 1/9 (2.64)
KSSQSVLYRSRNKVSVA | WASTRES | QQYHRYPLS | nd / nd / nd | nd | 2/9 (4.94)
KFSQSVLYESRNKNSVA | WASTREP | QQEHRLPLS | nd / nd / nd | nd | 0/9
KISQSVLYESRNKNSVA | WASTRES | QQYRRLPLK | 0.68 / 0.75 / 0.69 | 0.71 | 1/9 (3.68)
KSSQSVLYESRNKNSVA | WASQRES | YQHHRLPLS | 2.84 / 2.32 / 3.21 | 2.79 | 0/9
KSSTSVLYESRNKASVA | WASHRES | QQYHRLPLS | 1.49 / 1.44 / 1.61 | 1.51 | 4/9 (4.18)
KSSQDVLYESRGKNSVA | WASSRES | QQYHRLPLS | 1.37 / 1.86 / 1.03 | 1.42 | 0/9
KSSQLVLYESRNKNSVR | NASTRES | QQYHRLPLS | nd / nd / nd | nd | 0/9
KSSQSVLYCSRNKNSVA | WASTRES | QQYMRLPLS | 2.32 / 2.88 / nd | 2.60 | 1/9 (3.40)
KSSQSVLYESRNKNSVA | WASIQEH | QQYHRLPLS | nd / nd / nd | nd | 0/9
KSSQSVLYESRRKNSVG | WASTRRS | QQYHRLPLS | nd / nd / nd | nd | 2/9 (3.68)
KSSQSVLYESRRPNSVA | AASTRES | QQYHRLPLS | nd / nd / nd | nd | 0/9
KSSQSVLYESRWKNSYA | WWSTRES | QQYHRLPLS | nd / nd / nd | nd | 0/9
KSSQSVLYESRNKKSVA | WASTRES | QNYHRLPLS | 3.81 / nd / nd | 3.81 | 0/9
KSSQDVLYESRNKNSVA | WESTRES | QQYHRLPFS | 1.53 / 1.47 / 1.57 | 1.53 | 8/9 (5.06)
KSSQSVHYESRNKNSVA | WHSTRFS | QQYHRLPLS | nd / nd / 4.88 | 4.88 | 2/9 (3.29)
KSSSSVLSESRNKNSVA | WASTRES | QQYHRLPLS | nd / 3.54 / 4.56 | 4.05 | 1/9 (3.75)
YSSQSVLYESRNKNSVA | WQSTRES | QQYHRLPLC | 4.19 / 4.28 / nd | 4.23 | 2/9 (4.59)
KSSQSVLYESRNKNSCA | WTSTREF | QQYHRLPLS | nd / nd / nd | nd | 0/9
KSSQSVLYESRNKNSVA | WASTRES | NQYHRLPVG | nd / nd / nd | nd | 3/9 (4.10)
KKSQSVLYESRNKNSVA | WASTRDS | QQYHRLPLS | 1.82 / nd / nd | 1.82 | 0/9
KSSQSVLDESRNCNSVA | WASTVES | QQYHRLPLS | 0.94 / 0.94 / 1.05 | 0.97 | 1/9 (4.37)
KSSQSVLEEMRNKSSVA | WASTRES | QQYHRLPLS | 0.43 / 0.69 / 0.36 | 0.49 | 1/9 (3.42)
KSSQSVLYESRNKNVVA | WASTRER | YQYHRLPLS | nd / nd / nd | nd | 0/9
KSSQSVLYESRNKNSVA | IPSTRES | QQYHRLPPS | nd / 4.29 / nd | 4.29 | 3/9 (4.32)
KSGQSVLYESRNKTSVA | WASTRES | QQYHRLPFS | 1.25 / 1.76 / 1.71 | 1.57 | 0/9
KSSQSVLKESRNKNGVA | WASTRES | QDYHRLPLS | 4.21 / 5.00 / 4.82 | 4.68 | 6/9 (4.70)
KSSQSVLYESVFKNSAA | WASTRES | QQYHRLPLS | nd / nd / nd | nd | 1/9 (3.54)
KSYQSVLYESRNKNSVA | WPDTRES | QQYHRLPLS | nd / nd / 3.92 | 3.92 | 0/9
KSSQSFLYESRNKNSVA | WTSTPES | QQYHRLPLS | 3.44 / 2.80 / 4.28 | 3.51 | 3/9 (4.43)
KSSQSVLCESRNKNSVA | WAKTRES | QQIHRLPLS | nd / nd / nd | nd | 0/9
KSSQSVLYMSRNKNTNA | WASTRES | QQYHRLPLS | 5.69 / nd / 4.01 | 4.85 | 1/9 (3.33)
KSQQSVLYESRNKNSVI | TASTRES | QQYHRLPLS | 4.54 / nd / nd | 4.54 | 2/9 (3.02)
KSSQEVLYESRNKNSVA | WASTRES | NQYHRLPLE | nd / 4.87 / 5.08 | 4.98 | 2/9 (4.20)
KSSQMVLYESRNKNKVA | WASTRES | QQYHWLPLS | 2.15 / 1.83 / 2.00 | 1.99 | 3/9 (3.71)
WSSQSVLYESRNKNSVA | WASTRMS | QQMHRLPLS | 5.70 / 3.68 / 4.01 | 4.46 | 5/9 (4.80)

Top 7 of the variants detected in all replicates, tightest first:

{"CDR-L1": "DSSQSVLYESRNKNSVA", "CDR-L2": "GASTRES", "CDR-L3": "QQYHRIPLS", "replicates, log10 nM": "0.14 / 0.47 / 0.30", "mean log10 Kd (nM)": "0.30", "empty controls": "0/9"}
{"CDR-L1": "KSSQSVLDESRNKNSVA", "CDR-L2": "WASTRES", "CDR-L3": "DQYHRLPLS", "replicates, log10 nM": "0.25 / 0.52 / 0.38", "mean log10 Kd (nM)": "0.38", "empty controls": "7/9 (4.58)"}
{"CDR-L1": "KSSQSVLEEMRNKSSVA", "CDR-L2": "WASTRES", "CDR-L3": "QQYHRLPLS", "replicates, log10 nM": "0.43 / 0.69 / 0.36", "mean log10 Kd (nM)": "0.49", "empty controls": "1/9 (3.42)"}
{"CDR-L1": "KISQSVLYESRNKNSVA", "CDR-L2": "WASTRES", "CDR-L3": "QQYRRLPLK", "replicates, log10 nM": "0.68 / 0.75 / 0.69", "mean log10 Kd (nM)": "0.71", "empty controls": "1/9 (3.68)"}
{"CDR-L1": "KSSQSVLYESVNKNQVA", "CDR-L2": "WASTRET", "CDR-L3": "QQYHRLPLS", "replicates, log10 nM": "0.81 / 0.97 / 0.88", "mean log10 Kd (nM)": "0.89", "empty controls": "5/9 (4.03)"}
{"CDR-L1": "KSSQSVLDESRNCNSVA", "CDR-L2": "WASTVES", "CDR-L3": "QQYHRLPLS", "replicates, log10 nM": "0.94 / 0.94 / 1.05", "mean log10 Kd (nM)": "0.97", "empty controls": "1/9 (4.37)"}
{"CDR-L1": "WSSQSVLYESRNKNSNA", "CDR-L2": "WASTRES", "CDR-L3": "QQYHRLRLS", "replicates, log10 nM": "0.92 / 1.03 / 1.17", "mean log10 Kd (nM)": "1.04", "empty controls": "1/9 (2.26)"}

For reference, the parent read 0.65 as the reference entry and 1.68 as a member of this library.

From the AlphaSeq antibody data of Engelhart et al. 2022 (doi:10.1038/s41597-022-01779-4), copy in the FLAb collection.